Measured values: ChEMBL document CHEMBL2074026, “Novel experimental parameters to quantify the modulation of absorptive and secretory transport of compounds by P-glycoprotein in cell culture models of intestinal epithelium” (Pharm Res, 2003)

Protein sequences, listed by entry. Tags and fused reporters are not part of them.
UniProt P08183, whole entry: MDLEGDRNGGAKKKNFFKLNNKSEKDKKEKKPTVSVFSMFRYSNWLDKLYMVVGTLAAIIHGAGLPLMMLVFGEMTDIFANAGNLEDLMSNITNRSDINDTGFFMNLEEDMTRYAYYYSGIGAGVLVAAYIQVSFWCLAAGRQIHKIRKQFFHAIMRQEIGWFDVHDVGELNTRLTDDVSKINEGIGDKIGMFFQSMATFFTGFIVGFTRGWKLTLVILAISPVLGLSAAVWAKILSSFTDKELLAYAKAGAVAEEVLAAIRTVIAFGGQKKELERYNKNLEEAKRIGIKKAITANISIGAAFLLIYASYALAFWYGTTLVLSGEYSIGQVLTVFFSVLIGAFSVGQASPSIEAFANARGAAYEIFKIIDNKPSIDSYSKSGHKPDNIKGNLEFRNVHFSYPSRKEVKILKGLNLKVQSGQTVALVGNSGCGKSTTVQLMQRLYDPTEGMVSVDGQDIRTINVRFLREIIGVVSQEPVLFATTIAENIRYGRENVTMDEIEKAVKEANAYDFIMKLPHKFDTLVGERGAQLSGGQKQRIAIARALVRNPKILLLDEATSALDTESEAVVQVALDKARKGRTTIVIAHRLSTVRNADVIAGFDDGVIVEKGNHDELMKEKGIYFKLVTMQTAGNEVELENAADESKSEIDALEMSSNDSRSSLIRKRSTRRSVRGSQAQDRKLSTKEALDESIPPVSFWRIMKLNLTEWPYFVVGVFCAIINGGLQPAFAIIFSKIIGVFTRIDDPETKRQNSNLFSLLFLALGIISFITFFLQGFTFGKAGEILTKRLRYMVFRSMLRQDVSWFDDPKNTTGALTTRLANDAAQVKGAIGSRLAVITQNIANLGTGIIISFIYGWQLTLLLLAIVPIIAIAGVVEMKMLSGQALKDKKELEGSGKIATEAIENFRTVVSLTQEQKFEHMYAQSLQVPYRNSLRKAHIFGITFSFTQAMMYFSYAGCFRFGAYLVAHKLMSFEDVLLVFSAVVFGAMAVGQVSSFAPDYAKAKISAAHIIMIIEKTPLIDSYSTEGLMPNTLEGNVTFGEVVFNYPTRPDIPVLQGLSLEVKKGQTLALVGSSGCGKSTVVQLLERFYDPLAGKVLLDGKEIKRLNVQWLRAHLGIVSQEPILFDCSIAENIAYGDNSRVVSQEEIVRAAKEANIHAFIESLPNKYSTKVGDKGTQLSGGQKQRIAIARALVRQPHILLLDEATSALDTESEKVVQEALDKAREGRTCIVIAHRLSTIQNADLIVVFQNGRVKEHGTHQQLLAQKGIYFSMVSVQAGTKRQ

Target: ATP-dependent translocase ABCB1 (Homo sapiens, UniProt P08183)
Assay: TP_TRANSPORTER: transepithelial transport of Morphine at a concentration of 1 uM in MDR1-expressing MDCK cells
Format: functional, cell-based
Details: dog

CN1CC[C@]23c4c5ccc(O)c4O[C@H]2[C@@H](O)C=C[C@H]3[C@H]1C5 [MORPHINE]
Activity: substrate [+]
